# Results: patent publication US6809110B2 (Hoffmann-La Roche Inc., priority 2002, dated 2004)
# Experiments:
# PPARα [1] = molecular target: T1, PPARα (Homo sapiens, UniProt Q07869); assay: PPARα radioligand binding assay (SPA, GST-PPARα-LBD fusion protein); parameters: PPARγ (aa 174 to 476) and PPARα (aa 167 to 469); made in house; host or cells: E. coli BL21(pLysS); settings: SPA beads
# T1 sequence (Q07869 167-468 limits assumed): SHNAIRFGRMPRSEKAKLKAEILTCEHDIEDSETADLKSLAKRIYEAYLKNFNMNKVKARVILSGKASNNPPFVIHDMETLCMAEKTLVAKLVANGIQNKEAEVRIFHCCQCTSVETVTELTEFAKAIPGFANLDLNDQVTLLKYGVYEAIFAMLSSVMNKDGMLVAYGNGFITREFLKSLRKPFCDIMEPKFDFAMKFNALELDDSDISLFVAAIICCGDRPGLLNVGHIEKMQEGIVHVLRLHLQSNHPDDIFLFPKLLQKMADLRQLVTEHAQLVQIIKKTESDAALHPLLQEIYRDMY
# From the text: (§1) Full-length cDNA clones for human PPARα and mouse PPARγ were obtained by RT-PCR from human adipose and mouse liver cRNA, respectively, cloned into plasmid vectors and verified by DNA sequencing. […] To accomplish this, the portions of the cloned sequences encoding the LBDs were amplified from the full-length clones by PCR and then subcloned into the plasmid vectors. Final clones were verified by DNA sequence analysis.
# Induction, expression, and purification of GST-LBD fusion proteins were performed in E. coli strain BL21(pLysS) cells by standard methods (Ref: Current Protocols in Molecular Biology, Wiley Press, edited by Ausubel et al.).
# PPARα receptor binding was assayed in TKE50 (50 mM Tris-HCl, pH 8, 50 mM KCl, 2 mM EDTA, 0.1 mg/ml fatty acid-free BSA and 10 mM DTT). […] For radioligand binding e.g. 10000 dpm of 2(S)-(2-benzoyl-phenylamino)-3-{4-[1,1-ditritio-2-(5-methyl-2-phenyl-oxazol-4-yl)-ethoxy]-phenyl}-propionic acid or 2,3-ditritio-2(S)-methoxy-3-(4-(2-(5-methyl-2-phenyl-oxazol-4-yl)-ethoxy]-benzo[b]thiophen-7-yl}-propionic acid in 50 ul were added, the reaction incubated at RT for 1 h and scintillation proximity counting performed. All binding assays were performed in 96 well plates and the amount of bound ligand measured on a Packard TopCount using OptiPlates (Packard). Nonspecific binding was determined in the presence of 10^−4 M unlabelled compound. […]
# PPARα [2] = molecular target: T1, PPARα; assay: Luciferase transcriptional reporter gene assay, BHK21 cells transfected with pFA-PPARα-LBD; type: cell-based; parameters: PPARα (aa 167 to 469); settings: 24 hours incubation
# Description: as §1
# Baby hamster kidney cells (BHK21 ATCC CCL10) were grown in DMEM medium containing 10% FBS at 37° C. in a 95%02:5%CO2 atmosphere. Cells were seeded in 6 well plates at a density of 10^5 Cells/well and then batch-transfected with either the pPA-PPARγ-LBD or pFA-PPARα-LBD expression plasmids plus a reporter plasmid and an expression plasmid encoding the secretable form of alkaline phosphatase (SEAP) as a normalization control. […] Following incubation of the cells for 24 hours with substances, 50 ul of the supernatant was recovered and analyzed for SEAP activity (Roche Molecular Biochemicals). […] Luminescence for both SEAP and luciferase was measured in a Packard TopCount. Luciferase activity was normalized to the SEAP control and transcriptional activation in the presence of a test substance was expressed as fold-activation over cells incubated in the absence of the substance. EC50 values were calculated using the XLfit program (ID Business Solutions Ltd. UK).
smiles,measurement,setting,value
"CN(CCOc1ccc(CC2SC(=O)NC2=O)cc1)c1ccccn1 (centres unmarked) [Rosiglitazone, reference compound]",PPARα IC50,PPARα [1],inactive
same,PPARα EC50,PPARα [2],inactive
